{"source": "patent USRE33375E", "about": "“Treatments employing drug-containing matrices for introduction into cellular lesion areas” (Matrix Pharmaceuticals, Inc., priority 1988, dated 1990)", "key": {"[1]": {"system": "experimental murine fibrosarcoma (RIF-1 cells)", "assay": "Regrowth delay of the treated transplantable murine fibrosarcoma", "assay_type": "in vivo, murine; female C3H mice", "conditions": "ADM 15 mg/kg, i.p.; time to 3× original treatment volume (~150 mm^3)"}, "[2]": {"system": "uninjected contralateral fibrosarcoma (RIF-1 cells)", "assay": "Regrowth delay of the uninjected contralateral fibrosarcoma", "assay_type": "in vivo, murine; female C3H mice", "conditions": "ADM 15 mg/kg, i.p.; time to 3× original treatment volume (~150 mm^3)", "protocol": "A transplantable experimental murine fibrosarcoma (2×10^5 RIF-1 cells) was grown intradermally in the flank of 5 month old female C3H mice (Bantin and Kingman, Fremont, Calif.). Cis-diamine dichloroplatinum (II) (cis-Pt) (Sigma Chemical Co., St. Louis, Mo.) was dissolved in sterile saline at concentrations of 0.8, 1.6 and 3.2 mg/ml and mixed 1:1 with bovine collagen (BC) (36 mg/ml) in PBS 20 mM phosphate, 140 mM NaCl (Collagen Corp., Palo Alto, Calif.). Doses of 2, 4 and 8 mg/kg host of cis-Pt were delivered in 0.1 ml of the collagenous drug mixture to the center of the tumor growing in the flank (intratumorally, i.t.), and the tumor measured. The growth of a second uninjected tumor on the opposing flank of the same mouse was also measured. […] The growth of the tumors was monitored three times per week by caliper measurements of three perpendicular diameters of the tumor and calculating tumor volume from the formula\n*Regrowth Delay determined as the time (days) for tumors to grow to four […]\nIn the next study a combination of bleomycin sulfate (Sigma Chemical Co., St. Louis, Mo.) (15 mg/kg) and epinephrine (5 mg/kg) employed in a bovine collagen composition were evaluated for antitumor effect in the transplantable experimental murine fibrosarcoma model previously described. […]"}, "[3]": {"system": "white blood cells", "assay": "White blood cell count in tumor-bearing mice", "conditions": "ADM 15 mg/kg, i.p.; Day 4 post injection", "protocol": "In the next study 5-fluorouracil (5-FU) (Sigma Chem. Co., St. Louis, Mo.) with and without epinephrine (Sigma) suspended in saline by sonication (60 mg/ml) and mixed 1:1 with bovine collagen (BC) (Collagen Corp., Palo Alto, Calif.) (36 mg/ml) or normal saline. The subjects were 25 gm 12 week-old female C3H/He mice (Bantin and Kingman, Fremont, Calif.) bearing the transplatable experimental murine fibrosarcoma propagated intradermally as previously described.\nOn day four post-treatment, white blood cells (wbc) were counted by sampling blood from the tail, dilution in Turk's solution and counting in a hemocytometer. On day eight post-treatment, skin reaction is overlying tissue was graded for untoward response. […]\n^4 White Blood Cells measured on Day 4 post injection by sampling fro […]\nIn the next study a combination of bleomycin sulfate (Sigma Chemical Co., St. Louis, Mo.) (15 mg/kg) and epinephrine (5 mg/kg) employed in a bovine collagen composition were evaluated for antitumor effect in the transplantable experimental murine fibrosarcoma model previously described.\nIn another experiment the curative potential of drug matrix formulations was evaluated in the experimental murine fibrosarcoma model. […] WBC's were determined on Day 4 following each treatment cycle and skin reaction on […] after each treatment cycle. […]"}}, "note": "Structures can show the parent of a compound that is named as a salt. Marks after values point to notes of the source that are not given here."}
{"compound": "COc1cccc2c1C(=O)c1c(O)c3c(c(O)c1C2=O)C[C@@](O)(C(=O)CO)C[C@@H]3O[C@H]1C[C@H](N)[C@H](O)[C@H](C)O1", "note": "[Free ADM, doxorubicin-HCl]", "values": [{"measurement": "Tumor Regrowth Delay, Treated", "setting": "[1]", "value": "10.6 ± 1.6", "unit": "days"}, {"measurement": "Tumor Regrowth Delay, Contralateral", "setting": "[2]", "value": "10.6 ± 1.6", "unit": "days"}, {"measurement": "White Blood Cells/mm^3", "setting": "[3]", "value": "3.4 Cells/mm^3 (× 10^3)"}]}
